The other results are listed elsewhere or left out.
test system: A. baumannii ATCC 17978; experiment: relative growth (fraction of control); higher = less inhibition; settings: 50 µM

Compound	relative growth
CS(=O)(=O)[O-].C[n+]1ccccc1/C=N/O	0.964
O=C1C[C@@](C(=O)NCc2ccccc2)(c2ccc([N+](=O)[O-])cc2)[C@@H](c2ccc(CO)cc2)N1CC12CC3CC(CC(C3)C1)C2	0.92
CN(C)c1nc(SCC(N)=O)nc(N(C)C)n1	0.916
O=C1C[C@]2(c3ccc([N+](=O)[O-])cc3)C(=O)N(C3CC3)c3cc(CO)ccc3[C@H]2N1CC12CC3CC(CC(C3)C1)C2	0.998
COc1ccc2c(c1)[C@@H](NCC=C(C)C)[C@H](C)[C@H]2c1ccccc1	0.929
COc1cc(O)ccc1C(C)=O	0.934
COCCOC(=O)N1C(=O)[C@@]2(c3ccccc31)[C@H](C(=O)Nc1nc3ccccc3s1)[C@H]1C(=O)O[C@H](c3ccccc3)[C@H](c3ccccc3)N1[C@@H]2c1ccccc1OCCO	1.02
O=C(O)c1ccc(N2CCCS2(=O)=O)cc1	1.09
CC(C)(O)CC[C@@H](O)[C@](C)(O)C1CC[C@@]2(O)C3=CC(=O)C4C[C@@H](O)[C@@H](O)C[C@]4(C)C3CC[C@]12C (stereo partly specified)	0.934
C[N+](C)(C)CCCCCCNC(=O)[C@@H]1C[C@@H]2C(=O)N[C@@H](CCCC[N+](C)(C)C)C(=O)N2[C@@H]1c1ccc(O)cc1	1.1
CSc1[nH]c(=O)[nH]c(=O)c1C#N	0.938
COc1ccc(NC(=O)O[C@H]2[C@H](OC(=O)Nc3ccccc3-c3ccccc3)[C@H](OC(=O)Nc3ccccc3-c3ccccc3)[C@@H](OC)O[C@@H]2COC(=O)NCCCCCC(=O)NO)cc1	0.973
Cn1cnc(S(=O)(=O)N[C@H]2CC[C@@H](CC(=O)N3CCN(c4ccccc4)CC3)O[C@H]2CO)c1	1.07
C=CCc1ccccc1OCC(O)CNC(C)C.Cl (stereo unspecified)	0.776
C=CCN([C@@H](Cc1ccccc1)[C@@H](O)c1cn(CCCCCCNC(=O)C(=O)NC)nn1)S(=O)(=O)c1ccccc1[N+](=O)[O-]	0.943
CCCCCCCCCCCCCCCC(=O)OC[C@H](NC(=O)C(Cl)Cl)[C@H](O)c1ccc([N+](=O)[O-])cc1	1.01
C[C@H]1CCc2[nH]c3ccccc3c2C1	0.917
Cn1c(=O)[nH]c2nc[nH]c2c1=O	1.04
O=C(/C=C/c1ccc(O)c(O)c1)O[C@@H]1C[C@](O)(C(=O)O)C[C@@H](O)[C@H]1O	0.925
CS(=O)(=O)O.C[C@H]1COc2c(C3(N)CC3)c(F)cc3c(=O)c(C(=O)O)cn1c23	0.151
COc1cccc(C#Cc2cnc3c(c2)C(=O)N([C@H](C)CO)C[C@H](C)[C@@H](CN(C)C(=O)C2CCOCC2)O3)c1	0.813
CC(C)N1C(=O)[C@@]2(Cc3ccccc31)c1ccccc1C(=O)N(Cc1ccccc1Cl)[C@H]2c1ccc(CO)cc1	0.905
C=C1CC(=O)C2=C(C)C[C@H](O[C@@H]3O[C@H](CO)[C@@H](O)[C@H](O)[C@H]3O)[C@H]3C(=C)C(=O)O[C@@H]3[C@@H]12	1.01
NC(Cc1cc(I)c(O)c(I)c1)C(=O)O.O.O (stereo unspecified)	1.2
C=CCOC(=O)[C@H]1[C@@H]2C(=O)O[C@@H](c3ccccc3)[C@@H](c3ccccc3)N2[C@@H](c2ccc(OCCOC(=O)[C@H]3C[C@H]4C(=O)N[C@@H](CCCC[N+](C)(C)C)C(=O)N4[C@H]3c3cccc(OCCO)c3)cc2)[C@]12C(=O)Nc1ccc(I)cc12	1.14
C[C@H](O)C#Cc1ccc2c(c1)O[C@@H](CN(C)C(=O)Cc1ccccn1)[C@H](C)CN([C@@H](C)CO)S2(=O)=O	0.974

Compound	relative growth
O=C(C[C@H]1CC[C@@H]2[C@H](COC[C@@H](O)CN2S(=O)(=O)c2ccccc2F)O1)NCc1ccccc1F	1.07
C[C@H](CO)N1C[C@H](C)[C@H](CN(C)C(=O)Cc2ccccc2)Oc2cc(-c3cncnc3)ccc2S1(=O)=O	0.827
O=C(C[C@H]1C[C@H]2c3cc(NC(=O)Cc4ccncc4)ccc3O[C@H]2[C@H](CO)O1)NCCN1CCCCC1	0.911
CNC(C)[C@@H]1CC[C@@H](N)[C@@H](OC2[C@@H](N)C[C@@H](N)[C@H](OC3OC[C@](C)(O)[C@H](NC)[C@H]3O)[C@H]2O)O1.O=S(=O)(O)O (stereo partly specified)	0.605
CC(C)COCC(CN(Cc1ccccc1)c1ccccc1)N1CCCC1.Cl (stereo unspecified)	1.13
C[C@H](CO)N1C[C@H](C)[C@@H](CN(C)S(=O)(=O)c2ccccc2F)Oc2cc(-c3ccncc3)ccc2S1(=O)=O	0.876
C#C[C@]1(OC(C)=O)CCC2C3CCC4=C/C(=N/O)CCC4C3CC[C@@]21CC (stereo partly specified)	1.29
C[C@]1(Cn2ccnn2)[C@H](C(=O)O)N2C(=O)C[C@H]2S1(=O)=O	0.144
O=C(C[C@@H]1C=C[C@H](NC(=O)Nc2cc(F)ccc2F)[C@@H](CO)O1)NCCCN1CCOCC1	1.15
CO[C@H]1CN(C)C(=O)c2cc(NS(=O)(=O)c3ccccc3)ccc2OC[C@@H](C)N(C(=O)NC(C)C)C[C@H]1C	0.887
CN(CC(=O)NCc1ccccn1)S(=O)(=O)c1cc(Br)cnc1N	1.04
N[C@]1(C(=O)O)C[C@H](C(=O)O)C1	1.26
CC(=O)N/C=C1\C(=O)N(C)C(=O)C(C#N)=C1C	1.05
COC(=O)C1[C@H]2C[C@H]3c4[nH]c5ccccc5c4CCN3C[C@@H]2CC[C@@H]1O.Cl (stereo partly specified)	0.911
CCCCC/C=C\C/C=C\C/C=C\C/C=C\CCCC(=O)O	1.2
O=S(=O)(NCC[C@H]1CC[C@@H](NS(=O)(=O)c2ccccc2Cl)[C@@H](CO)O1)c1ccc(F)cc1	1.12
Nc1ccc(OCc2ccccc2)cc1	0.677
NCC[C@H]1CC[C@@H](NC(=O)NC2CCCCC2)[C@@H](CO)O1	0.916
Nc1ccccc1C(=O)CC(N)C(=O)O (stereo unspecified)	1.09
CS(=O)(=O)N1CCN(c2ccccc2)CC1	0.871
COCCOC(=O)N1C(=O)[C@@]2(c3cc(C#CC4=CCCCC4)ccc31)[C@H](c1ccc(OCCO)cc1)N1[C@H](c3ccccc3)[C@H](c3ccccc3)OC(=O)[C@H]1[C@@H]2C(=O)N1CCc2cc(OC)c(OC)cc2C1	0.989
C=CC[C@@H](CC(=O)N(CCO)Cc1ccccc1)C(=O)N[C@H](COC(=O)[C@H](CC=C)NC(=O)OCC1c2ccccc2-c2ccccc21)C(C)(C)C	0.775
O=C([O-])/C=C/C(=O)[O-].[Fe+2]	0.962
CCNC(=O)C[C@H]1CC[C@H](NC(=O)C2CC2)[C@H](CO)O1	0.849
Cc1n[nH]c(N/N=C/c2ccccn2)nc1=O	0.702
Cn1cnc(S(=O)(=O)N[C@H]2CC[C@H](CC(=O)NCC3CC3)O[C@H]2CO)c1	1.1

Compound	relative growth
NNC(=O)c1cccc(Cn2cccn2)c1	1.11
C=CCOC(=O)[C@H]1[C@@H]2C(=O)O[C@@H](c3ccccc3)[C@@H](c3ccccc3)N2[C@@H](c2ccc(OCCOC(=O)NCCCCCC(=O)NO)cc2)[C@@]12C(=O)Nc1ccc(I)cc12	0.82
CC(C)NC(=O)NCC[C@H]1CC[C@@H](NC(=O)CN(C)C)[C@@H](CO)O1	1.03
COC(=O)C1=CO[C@@H](O[C@@H]2O[C@H](CO)[C@@H](O)[C@H](O)[C@H]2O)[C@@H]2[C@@H](C)[C@@H](OC(=O)/C=C/c3ccc(O)cc3)[C@@H](O)[C@H]12	1.08
CO[C@@H](CN(C)C(=O)c1ccc2c(c1)OCO2)[C@H](C)CN([C@@H](C)CO)S(=O)(=O)c1ccc(Cl)cc1	1
CC1(C)CC[C@]2(C)CC[C@]3(C)C(=CCC4[C@@]5(C)CC[C@H](O)C(C)(C)C5CC[C@]43C)C2C1 (stereo partly drawn) [beta-AMYRIN]	0.901
O=C1[C@H](CCC(O)c2ccc(F)cc2)[C@@H](c2ccc(O)cc2)N1c1ccc(F)cc1 (stereo partly specified)	1.16
OC[C@@H](O)[C@H](O)[C@@H](O)[C@H](O)CO	0.949
CN(C)CC(=O)N[C@@H]1CC[C@@H](CCNS(=O)(=O)c2ccccc2)O[C@H]1CO	1.14
C[C@@H]1CN([C@H](C)CO)S(=O)(=O)c2ccc(C#CCC3CCCC3)cc2O[C@@H]1CN(C)C(=O)c1cnccn1	0.683
COc1ccccc1NC(=O)N(C)C[C@@H]1Oc2ncc(Br)cc2C(=O)N([C@H](C)CO)C[C@@H]1C	1
C(=N\c1nnc2nc[nH]n12)/c1ccco1	1.17
C=CCSCC1Nc2cc(Cl)c(S(N)(=O)=O)cc2S(=O)(=O)N1 (stereo unspecified)	1.09
COCCNC(=O)C[C@H]1CC[C@@H](NS(=O)(=O)c2ccc(C)cc2)[C@H](CO)O1	0.984
CS(=O)(=O)c1nnc(N)s1	0.951
COC(=O)c1c(CC[C@@H](CO)NC(=O)N2CCC[C@H]2Cn2cc(-c3ccccn3)nn2)oc(C(C)=O)c1C(=O)OC	0.947
NC(=O)c1cccc(N)c1	1.04
O=C(C[C@H]1CC[C@H]2[C@@H](COC[C@@H](O)CN2S(=O)(=O)c2ccc(F)cc2)O1)N1CCc2ccccc2C1	0.883
NC[C@H](c1ccccc1)N1CCOCC1	0.947
COc1ccc(NC(=O)Nc2ccc3c(c2)[C@H]2C[C@H](CC(=O)NCc4ccccn4)O[C@H](CO)[C@H]2O3)cc1	1.04
NCC[C@H]1CC[C@@H](NC(=O)Nc2ccc(F)cc2)[C@H](CO)O1	1.1
CO[C@H]1O[C@H](CO)[C@@H](OC(=O)Nc2ccc3c(c2)OCO3)[C@H](OC(=O)Nc2ccc3c(c2)OCO3)[C@@H]1OC(=O)Nc1ccc2c(c1)OCO2	1.08
CC(=O)O[C@H]1[C@H](Oc2cc(O)cc(O)c2C(=O)c2cc(O)cc(O)c2)O[C@H](CO)[C@@H](OC(=O)c2ccccc2)[C@@H]1O	0.957
C=CCOC(=O)[C@H]1[C@@H]2C(=O)O[C@@H](c3ccccc3)[C@@H](c3ccccc3)N2[C@@H](c2ccc(OCCOC(=O)[C@@H]3C[C@@H]4C(=O)N5CCC[C@H]5C(=O)N4[C@@H]3c3cccc(OCCO)c3)cc2)[C@]12C(=O)Nc1ccc(I)cc12	0.955

From published antibiotic growth screens (doi:10.1038/s41589-023-01349-8)
